Screening results as filed in PubChem BioAssay.
Mito fusion act: blocks mitochondrial division or promotes mitochondrial fusion. S. cerevisiae fusion-defective mutant growth rescue, CellTiterGlo 48 h. Potency, µM (highest dose often 46.1 µM), for inactives: at the highest dose growth rescue (activation), hits mostly activators. 0.23% of 320,000 active; also: potency is read from the fitted curve at half-maximal effect; % of control where 0% means no effect; nearly all actives have a fitted effect of over 45% in size
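Compounds are tested for their ability to restore growth of mitochondrial fusion-defective yeast strains at non-permissive 37C in YPEG medium over 48 hours. Viability is quantified by luciferase luminescence.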
Nrf2 activator: activators of Nrf2 (ARE) signaling; AID 624171; 0.31% of 410,000 active; AREc32 ARE-luciferase reporter (MCF7-derived line), luminescence, 24 h; Potency, µM (titrated, usually from 46.1 µM), inactives show at the highest dose activation, hits mostly activators; also: potency is read from the fitted curve at half-maximal effect; % of control where 0% means no effect; nearly all actives have a fitted effect of over 65% in size
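ARE activation measured as luciferase luminescence (Steady-Glo, 30 min RT) in AREc32_Fluc cells after 24 hr compound exposure at 37 deg C, 5% CO2; cells seeded overnight at 1000/well in OPTI-MEM, 5% FBS.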
A549 viability: kills or reduces viability of A549 cells in Nrf2 counter-screen | A549 ARE-Fluc cells, CellTiter-Fluor viability, 18-24 h | Potency, µM (series often up to 46 µM), for the others: top-dose activity change, negative = cytotoxicity, most hits filed as inhibitors | 0.16% of 390,000 active; also: potency is read from the fitted curve at half-maximal effect; % is scaled to controls: 0 for no effect and ±100 for the full control effect
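A549 ARE-Fluc cells in 5% FBS OPTI-MEM, 5000 cells/well, rested 2 h then exposed to compounds in concentration-response for 18-24 h at 37 °C. Viability by CellTiter-Fluor fluorescence (Ex 405/Em 525) after 30 min; luciferase luminescence (BugLite, 15 min, RT) read afterwards.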
Nrf2 inh: Nrf2 pathway inhibition | 2.1% of 360,000 active | AID 504444 | A549 ARE-Fluc reporter, luciferase luminescence, 18-24 h | Potency, µM (titrated, usually from 46 µM), inactives show top-dose activity change, negative = inhibition, usual class: inhibitors; also: potency is read from the fitted curve at half-maximal effect; % is scaled to controls: 0 for no effect and ±100 for the full control effect; nearly all actives have a fitted effect of over 60% in size
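A549 ARE_Fluc cells, 5000/well, 5% FBS OPTI-MEM; compounds in dose-response, 18-24 h at 37 °C/5% CO2; CellTiter-Fluor viability read (Ex 405/Em 525), then BugLite luciferase luminescence = Nrf2 activity.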
miR-21 reporter: miR-21 reporter, rising signal; 340,000 tested, under 10 active; Potency, µM (highest dose often 38.3 µM), for the others: top-dose reporter change, positive = more light; HeLa miR-21 FLuc reporter, luciferase, 48 h; active = well fitted rising curve with a large enough effect; inconclusive = small, poorly fitted or top-dose-only effect; inactive = no such curve, though single readings can be large or run the other way;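 further: % of control where 0% means no effect; miR-21 action dims this reporter so a rising signal means less miR-21 action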
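HeLa cells endogenously expressing miR-21, stably carrying CMV-driven firefly luciferase with a downstream miR-21 binding site, 2000 cells/well. Titrations up to approximately 40 uM, 48 hours; luciferase luminescence read.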
* marks the source's active call; other numbers are inactive results; ? = inconclusive; . = not tested or not shown; ! = not active in a repeat. Shown are actives, neighbours in structure and some others; about 2.3% of the full set was active somewhere. Calls follow the shape of the dose curve; as a rule, active = well fitted curve in the direction sought with a large enough effect; inconclusive = small, poorly fitted or top-dose-only effect, or another doubt; inactive = no such curve, though single readings can be large; an effect the other way counts as inactive or inconclusive.

SMILES	Mito fusion act	Nrf2 activator	A549 viability	Nrf2 inh	miR-21 reporter
COc1ccc(NC(=O)CC2C(=O)N(c3cccc(OC)c3)C(=O)N2Cc2ccc3c(c2)OCO3)cc1 (stereo unspecified)	.	-1%	-2%	-15%	5%
CCCC/C=C/[C@H](c1ccccc1)[C@H](CO)Cc1ccc([N+](=O)[O-])cc1	.	.	-19%	?	.
NC(=O)C1CCN(c2ccc(S(=O)(=O)N3CCC(Cc4ccccc4)CC3)cn2)CC1	-6%	-1%	-18%	1.6µM*	6%
CC(C)Cc1nn2c(=O)cc(COC(=O)c3ccccc3NC(=O)c3cccs3)nc2s1	.	-1%	5%	.	1%
CC(=O)Nc1cccc(NC(=O)c2cc(-c3cccnc3)nc3ccc(Cl)cc23)c1	-3%	5%	-7%	?	14%
COc1cccc(/C(C)=N/NC(=O)c2cc(-c3cccnc3)nc3ccccc23)c1	1%	4%	-6%	21µM*	-6%
CC(=O)Nc1cccc(NC(=O)c2cc(-c3cccnc3)nc3ccc(Br)cc23)c1	2%	0%	?	12µM*	15%
COc1ccc(C2c3c(nc(C)[nH]c3=O)Oc3ccc4ccccc4c32)cc1OC (stereo unspecified)	.	.	14%	-7%	.
CCOC(=O)c1n[nH]n2c1nc(=S)c1ccccc12	14µM*	1%	0%	27%	-2%
CCOC(=O)c1n[nH]c2ccccc12	1%	0%	-5%	-12%	-7%
COc1ccc(Cc2nn3c(-c4ccccc4Br)nnc3s2)cc1	20%	2%	-3%	16µM*	-14%
Nc1nc(NCc2ccc(Cl)cc2Cl)c2[nH]cnc2n1	.	.	7%	12%	.
CCc1ccc2nc(N(Cc3cccnc3)C(C)=O)sc2c1	.	3%	9%	.	-67%
Cc1ccc2c(C)c(C(=O)N(Cc3ccc(Cl)cc3)C3CCS(=O)(=O)C3)oc2c1 (stereo unspecified)	.	5%	?	?	13%
CCC(=O)NC(c1cccs1)c1cc(Br)c2cccnc2c1O (stereo unspecified)	15%	.	.	.	.
O=C(CCc1ccccc1)NC(c1cccs1)c1cc(Cl)c2cccnc2c1O (stereo unspecified)	7%	-1%	?	16µM*	?
CC(=O)NC(c1ccccc1)c1cc([N+](=O)[O-])c2cccnc2c1O (stereo unspecified)	-5%	-1%	?	15µM*	1%
CC(C)C(=O)NC(c1ccccc1)c1cc([N+](=O)[O-])c2cccnc2c1O (stereo unspecified)	0%	-1%	-20%	?	?
CCCC(=O)NC(c1cccs1)c1cc([N+](=O)[O-])c2cccnc2c1O (stereo unspecified)	1%	0%	?	21µM*	-1%
O=C(CCC(=O)N1CC2CCCN2c2ccccc21)NCc1cccc(Cl)c1 (stereo unspecified)	.	2%	-23%	?	?
C/C=C\C1=CCCC1Nc1ncnc2ccc(-c3c(C)noc3C)cc12 (stereo unspecified)	.	.	2%	?	.
Brc1ccc2[nH]c3c(c2c1)CCC3	-2%	-1%	0%	?	16%
O=C1Cc2c([nH]c3ccc(Br)cc23)-c2ccccc2N1	7.3µM*	0%	-20%	?	.
COc1ccc(-c2cc(-c3c(O)c(OC)c4occc4c3OC)[nH]n2)cc1OC	4%	9%	?	13µM*	-25%
COc1ccc(-c2cc(-c3c(O)c(OC)c4occc4c3OC)[nH]n2)cc1	-3%	5%	?	?	-16%

Some of these compounds in order of formula weight, ascending:
SMILES	Mito fusion act	Nrf2 activator	A549 viability	Nrf2 inh	miR-21 reporter
Nc1nc(NCc2ccc(Cl)cc2Cl)c2[nH]cnc2n1	.	.	7%	12%	.
O=C1Cc2c([nH]c3ccc(Br)cc23)-c2ccccc2N1	7.3µM*	0%	-20%	?	.
COc1ccc(-c2cc(-c3c(O)c(OC)c4occc4c3OC)[nH]n2)cc1	-3%	5%	?	?	-16%
COc1cccc(/C(C)=N/NC(=O)c2cc(-c3cccnc3)nc3ccccc23)c1	1%	4%	-6%	21µM*	-6%
CC(C)Cc1nn2c(=O)cc(COC(=O)c3ccccc3NC(=O)c3cccs3)nc2s1	.	-1%	5%	.	1%

Remaining list, next part:
SMILES	Mito fusion act	Nrf2 activator	A549 viability	Nrf2 inh	miR-21 reporter
COc1ccc(C(=O)/C=C/c2ccccc2)c(O)c1	-3%	?	3%	-12%	-31%
O=C(/C=C/c1ccc(O)cc1)c1ccc(O)cc1O	16µM*!	?	-13%	-12%	9%
O=S1(=O)C=C(N2CCCCC2)c2ccccc21	-10%	13µM*	-4%	1%	-4%
O=C1c2ccccc2C(=O)c2cc(N3CCCCC3)ccc21	.	6%	-16%	?	.
Cc1ccc2c(c1)-c1c(cnn1CC(=O)N1CCN(c3ccccc3F)CC1)CO2	.	0%	1%	5%	4%
CCc1ccc(-n2nc(C)c3c(C)cc(=O)n(CC(=O)N(CC)Cc4ccccc4)c32)cc1	.	4%	1%	10%	-3%
CCN(Cc1ccccc1)C(=O)Cn1c(=O)cc(C)c2c(C)nn(-c3cccc(F)c3)c21	.	-1%	-22%	21µM*	16%
CC(=O)OCC(=O)[C@@]12OC(C)(C)O[C@@H]1C[C@H]1[C@@H]3C[C@H](F)C4=CC(=O)C=C[C@]4(C)[C@@]3(F)[C@@H](O)C[C@@]12C	2%	-1%	-6%	?	-29%
CC(=O)OCC(=O)[C@@]1(OC(C)=O)[C@@H](C)C[C@H]2[C@@H]3C[C@H](F)C4=CC(=O)C=C[C@]4(C)[C@@]3(F)[C@@H](O)C[C@@]21C	-3%	2%	5%	0.0092µM*	-25%
CC(=O)OCC(=O)[C@@]1(O)CC[C@H]2[C@@H]3CCC4=CC(=O)C=C[C@]4(C)[C@@]3(F)[C@@H](O)C[C@@]21C	-4%	-1%	-5%	0.029µM*	.
CC(=O)OCC(=O)C1(O)CCC2C3CC(F)C4=CC(=O)CCC4(C)C3C(=O)CC21C (stereo unspecified)	.	0%	-3%	-27%	.
CC(=O)OCC(=O)C1(O)CCC2C3CC(C)C4=CC(=O)C=CC4(C)C3=CCC21C (stereo unspecified)	.	3%	3%	2.1µM*	.
CC12C=CC(=O)C=C1C(F)CC1C3CCC(O)(C(=O)CO)C3(C)CC(O)C12F (stereo unspecified)	.	-1%	-3%	0.0052µM*	.
C[C@@H]1C[C@H]2[C@@H]3C[C@H](F)C4=CC(=O)C=C[C@]4(C)[C@@]3(F)[C@@H](O)C[C@]2(C)[C@@]1(O)C(=O)CO	-6%	0%	-6%	?	-27%
COc1cc(C2Nc3ccccc3C(=O)N2Cc2ccccc2)ccc1OCc1ccc(NC(C)=O)cc1 (stereo unspecified)	.	.	0%	14%	.
CC(=O)OCC(=O)C1(O)CCC2C3CC(C)C4=CC(=O)C=CC4(C)C3(F)C(O)CC21C (stereo unspecified)	.	1%	4%	0.058µM*	.
CCC(=O)O[C@]1(C(=O)CCl)[C@@H](C)C[C@H]2[C@@H]3CCC4=CC(=O)C=C[C@]4(C)[C@@]3(F)[C@@H](O)C[C@@]21C	2%	-1%	-7%	?	-20%
CC1(C)OC2CC3C4CC(F)C5=CC(=O)C=CC5(C)C4(F)C(O)CC3(C)C2(C(=O)CO)O1 (stereo unspecified)	0%	1%	-11%	?	-27%
